# scFv variants of Ab-14 (heavy chain) against a SARS-CoV-2 spike peptide

Source: Li et al. 2023 (doi:10.1038/s41467-023-39022-2), MIT Lincoln Laboratory and A-Alpha Bio; data file from the FLAb repository.

Target peptide (SARS-CoV-2 spike, HR2 region): PDVDLGDISGINAS

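This is the validation round: designs drawn from the data on random variants, tested in the same kind of assay. Group labels follow the data file (Ctrl: baseline library sampled from a position-specific scoring matrix, with some repeated check sequences; Rand: our label for a block that the file lists under HC and that is probably the random mutants of the ten best first-round binders; En: ensemble of fine-tuned language models; GP: Gaussian process model; GPLM: also part of the Gaussian process libraries; HC: hill climbing; Gen: genetic algorithm; Gibbs: Gibbs sampling; a sequence that several methods proposed may carry one label only). The assay is AlphaSeq: two haploid yeast populations carry antibody and antigen on their surface. The frequency of each diploid, read from paired DNA barcodes, reflects how well the two displayed proteins bind. Scores were corrected for input abundance and mapped to Kd with protein pairs of known affinity run in the same pool. There are six technical replicates.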

The variants keep the light chain, the linker and the frameworks of Ab-14 (scFv order VH, a 15-residue (Gly4Ser)3 linker, VL).
VH: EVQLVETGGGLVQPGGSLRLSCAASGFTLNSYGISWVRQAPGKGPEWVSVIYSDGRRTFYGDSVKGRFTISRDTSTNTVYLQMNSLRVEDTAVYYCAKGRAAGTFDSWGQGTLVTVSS
VL: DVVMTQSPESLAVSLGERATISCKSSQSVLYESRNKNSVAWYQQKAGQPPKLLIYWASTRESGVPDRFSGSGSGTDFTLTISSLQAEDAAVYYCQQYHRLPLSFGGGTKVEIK

Each variant is given by its three heavy chain CDRs, as the data file delimits them; those of the parent are GFTLNSYGIS, VIYSDGRRTFYGDSVK, GRAAGTFDS. Values are log10 of the apparent Kd in nM; lower means stronger binding. The mean shown is taken over the replicates in which the pair was detected. "no signal" means that the variant was in the library but no mating with the target was seen in any replicate; the authors take this as a sign of poor binding, and no number exists. The list is sorted by this average, lowest first, undetected variants last.

"mean, log10 nM",seen in,CDR-H1,CDR-H2,CDR-H3,group
-0.77,6/6,GFNLNEYGIS,VIYADGQRTFYADSVK,GQVAGTFDV,En_HC
-0.77,6/6,GFDLNEYGIS,VIYADGRRTYYSDSVK,GQNAGTFDI,En_HC
-0.66,6/6,GFDLESYGIS,VIYADGMRTAYADSVK,GNVAGTFDS,En_HC
-0.63,6/6,GFDLNEYGIS,VIYADGVRTFYADSVK,GETAGTFDQ,En_HC
-0.62,6/6,GFDLNEYGIS,VIYADGMRTFYSDSVK,GQLAGTFDS,En_HC
-0.60,6/6,GFDLNEYGIS,VIYADGMRTAYIDSVK,GNVAGTFDI,En_Gen
-0.59,6/6,GFDLNEYGIS,VIYADGRRTAYADDVK,GGNAGTFDV,En_Gen
-0.52,6/6,GFDLNEYGIS,VIYADGKRTYYADSVK,GENAGTFDL,En_Gen
-0.52,6/6,GFGLDEYGIS,VIYADGRRTFYADSVK,GNVAGTFDQ,En_HC
-0.44,6/6,GFDLNEYGIS,VIYADGMRTSYIDSVK,GNQAGTFDV,En_Gen
-0.42,6/6,GFDLNEYGIS,VIYADGRRTFYADSVK,GQAAGTFDL,En_HC
-0.42,6/6,GFDLNEYGIS,VIYADGSRTVYADSVK,GNVAGTFDL,En_Gen
-0.30,6/6,GFDLNEYGIS,VIYADGRRTAYADSVK,GSNAGTFDI,En_Gen
-0.30,6/6,GFDLNEYGIS,VIYADGRRTFYADSVK,GEIAGTFIQ,En_HC
-0.10,6/6,GFSLNDYGIS,VIYSDGIRTFYGDSVK,GRTAGTFDS,GPLM_Gen
-0.08,6/6,GFDLNEYGIS,VIYADGMRTAYTDSVK,GGNAGTFDM,En_Gen
-0.05,6/6,GFDLNSYGIS,VIYSDGRRTFYGDQVK,GKTAGTFDS,GPLM_Gibbs
0.00,12/12,GFTLNSYGIS,VIYSDGRRTFYSDSVK,GREAGTFDS,Ctrl+GPLM_Gibbs
0.01,6/6,GFDLDEYGIS,VIYADGQRTFYADSVK,GEAAGTFDS,En_HC
0.15,6/6,GFDINEYGIS,VIYADGMRTAYADSVK,GNVAGTFDV,En_Gen
0.19,6/6,GFTLNEYGIS,VIYSDGRRTFYTDSVK,GREAGTFDR,GP_HC
0.21,6/6,GFNLDEYGIS,VIYADGVRKAYSSKVK,GKVHWFNLQ,En_Gibbs
0.23,6/6,GFDLNEYGIS,VIYADGRRTFYADSVK,GQVAGIFNV,En_HC
0.34,6/6,GFGLNEYGIS,VIYSDGRRTFYGDSVK,GRAAGTFDV,GP_HC
0.42,6/6,GFDLDEYGIS,VIYADGMRTAYADDVK,GNNAGTFDQ,En_Gen
0.46,6/6,GFSLNNYGIS,VIYSDGRRTFYGDSVK,GRTAGTFDK,GPLM_Gen
0.49,6/6,GFDLNEYGIS,VIYADGQRTAYVDSVK,GNQAGTFDV,En_Gen
0.76,4/6,GFTLKDYGIS,VIYSDGRRTFYGDSVK,GRAAGTFDS,Ctrl
0.85,6/6,GFDLNEYGIS,VIYADGQRKAYADSVK,GNVAGTFDL,En_Gen
0.94,6/6,GFTLNDYGIS,VIYSDGRRTWYGDSVK,GRNAGTFDS,GP_HC
0.95,6/6,GFDLNEYGIS,VIYADGMRTFYADSVK,GNLAGTFDQ,En_HC
0.98,6/6,SFTLNSYGIS,VIYADGRRTFYGDSVK,GRAAGTFDS,GPLM_Gen
1.08,1/6,GNTLNSYGIS,VIYSDGYRTHYGDSVR,GSAAGTFDS,Ctrl
1.08,6/6,GFTLNSYGIS,VIYSDGRRKFYTDSVK,GRAAGTFDS,Ctrl
1.12,6/6,GFTLGSYGIS,VIYSDGRRTFYGDSVK,GRNAGTFDS,Ctrl
1.13,6/6,GFNLNSYGIS,VIYSDGRRTFYGDRVK,GKTAGTFDS,GP_Gen
1.16,6/6,GNTLNEYGIS,VIYSDGRRTFYTDSVK,GRTAGTFDS,GP_HC
1.23,1/6,GFTLNSYGIS,VIYSDGHRTFYGDSVK,GRAAGTFDS,Ctrl
1.25,6/6,GFTLNSYGIS,VIYSDGRRTFYSDSVK,GKSAGTFDS,GPLM_Gen
1.36,1/6,GFWLNEYGIS,VIYSDGRRTFYIDSVK,GKAAGTFDS,GP_Gen
1.51,3/6,GFTLMSYGIS,VIYSDGRRTFYDDSVK,GQTAGTFDS,GPLM_HC
1.59,6/6,GFDLAEYGIS,VIYADGMRVSYDQNVK,GHGGGSFNF,En_Gibbs
1.60,6/6,GFTLDSYGIS,VIYSDGRRTFYKDSVK,GQAAGTFDS,GP_Gibbs
1.68,5/6,GFDLNSYGIS,VIYSDGRRTFYSDSVK,GAAGGTFDS,GPLM_HC
1.82,1/6,GFDLSEYGIS,VIYADGERANYVSNVK,GEQAGGFVL,En_Gibbs
1.91,4/6,GFCLNDYGIS,VIYSDGRRTFYADSVK,GRAAGTFDK,GP_HC
2.06,3/6,GKDIESYGVS,VIYADGKRTAYANNFK,GSNAGSFVS,En_Gibbs
2.11,1/6,GFTLNSYGIS,VIYSDGRRTFYGDSVK,ARAAGTFDS,Ctrl
2.20,4/6,GFTLNSYGIS,VIYSDGRRTFYVDEVK,GRAAGTFDS,Ctrl
2.27,1/6,GKSLNSYGIS,VIYSDGRRTFYGDSVK,GRTAGTFDS,GPLM_Gen
2.34,2/6,GFEMNSYGIS,VDYADGRRTIYTDSVK,GRAAGTFVS,Ctrl
2.50,1/6,GDTLNSYGIS,VIYSDGRRTFYGDSFK,GFAAGTFDS,Ctrl
4.02,1/6,GFYLNSYGIS,VIYSDGRRTFYDDSVK,GQEAGTFDS,GPLM_HC
no signal,0/6,GFDLNEYGIS,VIYADGRRQMYANPVK,GHMGGMKLT,En_Gibbs
no signal,0/6,GFHLNSYGIS,VIYSDGVRTFYGDSVK,GRAAGTFDL,Ctrl
no signal,0/6,GFNISEYGIS,VIYADGRRTAYKDTVK,GNLTWLFDV,En_Gibbs
no signal,0/6,GFNLLEYGIS,VIYADGRRMSYTDSVK,GGLGKYLTD,En_Gibbs
no signal,0/6,GFTLNQYGIS,VIYSDGRRTFYGDSVW,GRAAGFFDQ,Ctrl
no signal,0/6,GFTLNDYGIS,VIYSDGRRTFYGDSVV,GIAAGTFES,Ctrl
no signal,0/6,GFTLNSYGIS,VIYSDGRRTFYKDSVK,GRAKGTFDS,Ctrl
no signal,0/6,GFQLEDYGIS,VIYADGRRTAYAADVK,GQNNVVAGG,En_Gibbs
no signal,0/6,GYTLNSYGVS,VIYSDGRRTFYGDSVA,GYHAGTMDS,Ctrl
no signal,0/6,GFELNEYGIS,VIYSDGRRTFYGDSVK,GRAAVTFDL,GP_HC
no signal,0/6,KFTLNEYGIS,VIYSDGYRTFYSDSVK,GRAATTFDQ,Ctrl
no signal,0/6,GFTLNSYGIS,VIYADGRRTFYGDSVK,GRMAGTFKI,GP_HC
no signal,0/6,GFDINEYGIS,VIYADGMRKAVEQNVK,GNNGRSVVI,En_Gibbs
no signal,0/6,GFTLDSYGIS,VIYSHGRRTFYGDSVK,GRAAGTALS,Rand
no signal,0/6,GFTLNDYGIS,VIYSDGRRTFYGDSVK,GRADLTFIS,Rand
no signal,0/6,GDGLEDYGIS,VIYADGMRTYYAPNVK,GEVNGVMDI,En_Gibbs
no signal,0/6,GFNLLEYGIS,VIYADGKRTMYTNAVK,GMINDGVMA,En_Gibbs
no signal,0/6,GFTLNSYGIS,VIYSDGRRTFYGQSVK,GRAAGTADS,Ctrl
no signal,0/6,GFTLNSYSIS,VIYSDGRRTFYGDSVR,GRDAGRFVD,Ctrl
no signal,0/6,GFDLDEQGIS,VIYADGVRCSYAQSVK,GANSGVIDV,En_Gibbs
no signal,0/6,YFTLNEYGIS,VIYSDGRRTFYSDSVK,GRAAGFFTS,GP_HC
no signal,0/6,GFTLNSYGIS,VIYSDGWRTFYVDSVK,GWEAGTFDL,Ctrl
no signal,0/6,GFDLNEYGIS,VIYADGARSFYTNKVK,GVTVGDNGT,En_Gibbs
no signal,0/6,GFTLNQYGIH,VIYSDPRRTFYMDSVK,GRAAGFFDS,Rand
no signal,0/6,GFDIEEFGIS,VIYADGIQTAYAQKVK,GTIAGTFVD,En_Gibbs
no signal,0/6,GFTLDSYRIS,VIYSDLRRTFYGDSVK,GRAAGTALS,Rand
no signal,0/6,GFTLDEYGIS,VIYADGVRNEYADNVK,GNKVLYNMD,En_Gibbs

Excerpt, the first 9 entries:

CDR-H1,CDR-H2,CDR-H3,group,"mean, log10 nM",seen in
GFNLNEYGIS,VIYADGQRTFYADSVK,GQVAGTFDV,En_HC,-0.77,6/6
GFDLNEYGIS,VIYADGRRTYYSDSVK,GQNAGTFDI,En_HC,-0.77,6/6
GFDLESYGIS,VIYADGMRTAYADSVK,GNVAGTFDS,En_HC,-0.66,6/6
GFDLNEYGIS,VIYADGVRTFYADSVK,GETAGTFDQ,En_HC,-0.63,6/6
GFDLNEYGIS,VIYADGMRTFYSDSVK,GQLAGTFDS,En_HC,-0.62,6/6
GFDLNEYGIS,VIYADGMRTAYIDSVK,GNVAGTFDI,En_Gen,-0.60,6/6
GFDLNEYGIS,VIYADGRRTAYADDVK,GGNAGTFDV,En_Gen,-0.59,6/6
GFDLNEYGIS,VIYADGKRTYYADSVK,GENAGTFDL,En_Gen,-0.52,6/6
GFGLDEYGIS,VIYADGRRTFYADSVK,GNVAGTFDQ,En_HC,-0.52,6/6

A sequence measured in both rounds can read differently, since the two assays cover different ranges. In the paper, a design with two or fewer of six values counts as a poor binder. Some sequences occur more than once in the pool; their replicates are pooled. Of ten entries with the parent sequence, four were seen in most replicates (averages 0.34 to 2.37), three in one and three in none, so single entries are noisy. Empty control strains, which show no peptide, gave a signal in 1% of pairings with all heavy chain designs; the median was 2.08 and 95% of these signals were weaker than 0.84. No background was subtracted.